Assay results: PMC3241856 (ACS chemical biology, 2011)

Amino acid sequences for entries named in this document (tags omitted).
UniProt P33535, whole entry: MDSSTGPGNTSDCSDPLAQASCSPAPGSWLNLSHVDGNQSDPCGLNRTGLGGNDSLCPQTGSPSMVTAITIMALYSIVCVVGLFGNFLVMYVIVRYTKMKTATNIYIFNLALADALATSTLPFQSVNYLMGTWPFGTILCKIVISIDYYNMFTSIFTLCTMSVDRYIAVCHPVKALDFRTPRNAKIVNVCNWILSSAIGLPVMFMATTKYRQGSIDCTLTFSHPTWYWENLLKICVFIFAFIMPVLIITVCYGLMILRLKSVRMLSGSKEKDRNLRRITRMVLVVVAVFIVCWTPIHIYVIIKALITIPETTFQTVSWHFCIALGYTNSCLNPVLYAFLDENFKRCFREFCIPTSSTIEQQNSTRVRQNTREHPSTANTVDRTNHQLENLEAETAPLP

Biological target: mu opioid receptor (MOR) (Rattus norvegicus, UniProt P33535)
Assay: Whole cell inhibition of forskolin-stimulated adenylyl cyclase, C6-MOR cells
Type: cell-based

[D-Ala^2-N-Me-Phe^4-Gly^5-ol]-enkephalin [DAMGO]
maximal inhibition of forskolin-stimulated cAMP production: 86 ± 4.3%
